Only a part is listed here, and it is no random draw. Some structures show a salt or complex split into parts, the way the source records it. The source made the active and inactive calls. No stated cut-off is given here; in the data, active means inhibition above about 32%; inactive means the rest.
Assay: TEAD-YAP interaction inhibition, primary screen, TEAD-YAP interaction inhibitor project, luminescence, HEK-TIYL cells (AID 1259422);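 further: 0% = median of test compound wells and 100% = reference inhibitor wells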
Details: TEAD-Gal4/YAP UAS-luciferase luminescence, at 9.12 µM, stronger effect = higher value

Structure (SMILES) | inhibition
CP(=O)(Nc1ccc(Br)cc1)Oc1ccc(Cl)cc1 (centres undefined) | inactive: 8.71%
CCOC(=O)C(CC)C1=NC(C)(C)Cc2ccccc21.O=[N+]([O-])c1cc([N+](=O)[O-])c(O)c([N+](=O)[O-])c1 (centres undefined) | inactive: 0.92%
COc1ccccc1OP(C)(=O)Nc1c(C)cccc1C (centres undefined) | inactive: -20.1%
CCN(CC)C(C)COC(=O)C(O)(c1ccccc1)c1ccccc1 (centres undefined) | inactive: -11.9%
Cc1cc(N(C)C)cc[n+]1C(=O)N(C)C.c1ccc([B-](c2ccccc2)(c2ccccc2)c2ccccc2)cc1 | inactive: -9.27%
CCCOc1ccc(NP(C)(=O)Oc2ccccc2OC)cc1 (centres undefined) | inactive: -2.13%
CP(=O)(Nc1cccc(Br)c1)Oc1ccc(Cl)cc1 (centres undefined) | inactive: 14.5%
Nc1c([N+](=O)[O-])cc([N+](=O)[O-])c(Nc2ccc(C(=O)O)cc2)c1[N+](=O)[O-] | inactive: 14.4%
Cc1ccc(Cl)c(OP(C)(=O)Nc2ccccn2)c1 (centres undefined) | inactive: -8.36%
O=[N+]([O-])Nc1nc(CCc2n[nH]c(N[N+](=O)[O-])n2)n[nH]1 | inactive: -2.68%
O=[N+]([O-])C12CC3(O)CC([N+](=O)[O-])(C1)CC([N+](=O)[O-])(C3)C2 | inactive: 0.06%
COc1ccc(OP(C)(=O)Nc2cccc(Cl)c2C)cc1 (centres undefined) | inactive: 3.85%
COc1ccccc1OP(C)(=O)Nc1cccc(Br)c1 (centres undefined) | inactive: -1.05%
COc1ccccc1OP(C)(=O)Nc1ccc(Cl)cc1 (centres undefined) | inactive: 4.3%
CC1=[N+](C)C(C)(C)Cc2ccccc21.O=[N+]([O-])c1cc([N+](=O)[O-])c(O)c([N+](=O)[O-])c1 | inactive: -8.13%
CCOC(=O)c1ccc(NP(C)(=O)Oc2cc(C)cc(C)c2)cc1 (centres undefined) | inactive: 5.41%
O=c1[nH]c2cc([N+](=O)[O-])c([N+](=O)[O-])c([N+](=O)[O-])c2[nH]1 | inactive: 5.26%
Cc1ccc(C)c(NP(C)(=O)Oc2ccccc2)c1 (centres undefined) | inactive: 12.1%
O=[N+]([O-])c1cc2[nH]c3cc([N+](=O)[O-])c([N+](=O)[O-])cc3c2cc1[N+](=O)[O-] | inactive: 14.4%
C=CCC1(CC=C)CCCCCCCCCCCN1.O=[N+]([O-])c1cc([N+](=O)[O-])c(O)c([N+](=O)[O-])c1 | inactive: 6.6%
CP(=O)(Nc1cccc(Br)c1)Oc1ccccc1 (centres undefined) | inactive: 5.44%
O=[N+]([O-])c1cnc(Nc2c([N+](=O)[O-])cc([N+](=O)[O-])cc2[N+](=O)[O-])c([N+](=O)[O-])c1 | inactive: 3.44%
CC(=O)NC1(NC(C)=O)CC(C)N(C)CC1C.O=[N+]([O-])c1cc([N+](=O)[O-])c(O)c([N+](=O)[O-])c1 (centres undefined) | inactive: -12.8%

Structure (SMILES) | inhibition
CCN(CC)CCCOC(=O)C(O)(c1ccccc1)c1ccccc1 | inactive: -17.2%
Cc1ccc(NP(C)(=O)Oc2ccccc2)cc1 (centres undefined) | inactive: -11.3%
Cc1ccc2c(c1)c1nc(C)sc1n2C.O=[N+]([O-])c1cc([N+](=O)[O-])c(O)c([N+](=O)[O-])c1 | inactive: 0.52%
Cc1cc(C)cc(OP(C)(=O)Nc2ccc(F)cc2)c1 (centres undefined) | inactive: 3.35%
CCN(CC)c1nc(C)cc(C)n1.O=[N+]([O-])c1cc([N+](=O)[O-])c(O)c([N+](=O)[O-])c1 | inactive: 3.13%
CCOP(C)(=S)SCN(CC(=O)O)C(=O)OC (centres undefined) | inactive: -2.04%
O=[N+]([O-])c1c(NCCO)c([N+](=O)[O-])c(NCCO)c([N+](=O)[O-])c1NCCO | inactive: -6.75%
CC(C)Oc1ccc(NP(C)(=O)Oc2ccc(Cl)cc2)cc1 (centres undefined) | inactive: 5.36%
COc1ccccc1OP(C)(=O)Nc1ccc(Cl)cc1Cl (centres undefined) | inactive: -8.9%
CCCCOC(=O)Nc1c([N+](=O)[O-])cc([N+](=O)[O-])cc1[N+](=O)[O-] | inactive: -13.6%
O=C(O)C1(O)c2ccccc2-c2ccccc21 | inactive: 13.3%
CC(C)(C)c1ccc(OP(C)(N)=O)cc1 (centres undefined) | inactive: -4.33%
CC(CCN([N+](=O)[O-])S(=O)(=O)c1ccc([N+](=O)[O-])cc1)([N+](=O)[O-])[N+](=O)[O-] | inactive: -7.82%
CP1(=O)Oc2ccccc2Cc2ccccc2O1 | inactive: 5.36%
CCc1ccc(OP(C)(=O)Nc2ccccc2I)cc1 (centres undefined) | inactive: 3.5%
O=C(O)Cc1c([N+](=O)[O-])cc([N+](=O)[O-])cc1[N+](=O)[O-] | inactive: 6.66%
O=C(O)C(O)(c1ccccc1)c1ccccc1 | inactive: -4.21%
COc1ccccc1OP(C)(=O)Nc1ccc(C)cc1 (centres undefined) | inactive: 0.25%
Cc1ccc(NP(C)(=O)Oc2ccccc2)c(C)c1 (centres undefined) | inactive: -2.72%
CCOC(=O)c1ccc(NP(C)(=O)Oc2ccccc2)cc1 (centres undefined) | inactive: -3.65%
CP(=O)(O)OC(c1cccc(C(F)(F)F)c1)C(F)(F)F (centres undefined) | inactive: -0.26%
Cc1cc(C)cc(OP(C)(=O)NCc2ccccc2)c1 (centres undefined) | inactive: -5.39%
COc1ccccc1OP(C)(=O)Nc1cc(Cl)ccc1C (centres undefined) | inactive: 12.8%

Structure (SMILES) | inhibition
CN(C)CCOC(=O)C(O)(c1ccccc1)c1ccccc1 | inactive: -11.9%
CP(=O)(O)OC(c1ccccc1)C(F)(F)F (centres undefined) | inactive: -8.98%
COc1ccc(NP(C)(=O)OC(c2ccccc2)C(F)(F)F)cc1 (centres undefined) | inactive: -2.6%
O=[N+]([O-])c1cc([N+](=O)[O-])c(CCO)c([N+](=O)[O-])c1 | inactive: -1.11%
CP(=O)(Nc1ccc(Cl)cc1)Oc1ccccc1 (centres undefined) | inactive: 8.3%
CP(=O)(Nc1ccccc1Br)Oc1ccccc1 (centres undefined) | inactive: -0.92%
CC(Nc1c([N+](=O)[O-])cc([N+](=O)[O-])cc1[N+](=O)[O-])c1ccc([N+](=O)[O-])cc1 (centres undefined) | inactive: -13.1%
COc1ccccc1OP(C)(=O)Nc1ccccc1 (centres undefined) | inactive: 10.8%
COc1cc2nc(C)sc2cc1NC(C)=O | inactive: -13.3%
CCOP(C)(=S)SCC(=O)NC(Cc1ccccc1)C(=O)O (centres undefined) | inactive: 2.17%
COc1ccc(NP(C)(=O)Oc2ccc(C(C)C)cc2)cc1 (centres undefined) | inactive: -1.5%
C=C(C)CC1NC2CC(C)(C)C1c1ccccc12.O=[N+]([O-])c1cc([N+](=O)[O-])c(O)c([N+](=O)[O-])c1 (centres undefined) | inactive: -8.94%
CP(=O)(NC(=O)Nc1ccccc1)Oc1ccccc1 (centres undefined) | inactive: 2.46%
CP(=O)(O)OC(c1cccc(Cl)c1)C(F)(F)F (centres undefined) | inactive: 2.55%
CCN(CC)P(=O)(c1c([N+](=O)[O-])cc([N+](=O)[O-])cc1[N+](=O)[O-])N(CC)CC | inactive: -1.37%
Cc1ccc(NP(C)(=O)Oc2ccccc2)cc1C (centres undefined) | inactive: 6.72%
CCOC(=O)c1ccc(NP(C)(=O)Oc2ccc(OC)cc2)cc1 (centres undefined) | inactive: 9.12%
Cc1cccc(NP(C)(=O)Oc2ccccc2)c1 (centres undefined) | inactive: -2.92%
CP(=O)(O)OC(c1ccc(Cl)cc1)C(F)(F)F (centres undefined) | inactive: 7.77%
COc1ccccc1OP(C)(=O)Nc1cccc(Cl)c1C (centres undefined) | inactive: 7.61%
Cc1ccc(Cl)cc1OP(C)(=O)Nc1cccc2nsnc12 (centres undefined) | inactive: -6.43%
CCOP(C)(=S)SCC(=O)NC(C)C(=O)O (centres undefined) | inactive: -15.1%
CP(=O)(Nc1ccccn1)Oc1ccc(Cl)cc1 (centres undefined) | inactive: 0.12%

Reference: PubChem BioAssay AID1259422 (The Scripps Research Institute Molecular Screening Center, 2018)
